Assay results: patent US20230125429A1, “TRIPTONIDE OR A COMPOSITION COMPRISING TRIPTONIDE FOR USE IN TREATING DISORDERS” (priority 2017, published 2023)

Assay: Lethal dose and maximum tolerable dose in mice
Conditions: mouse, in vivo, oral; once every other day regimen
Method: First, a preliminary experiment was carried out to determine the maximal non-toxic dose by administering an oral dose of Triptonide at 0, 5, 10, 25, 50, 100, 200 mg/kg body weight once every other day. […] Thus, a second preliminary experiment was carried out in tumor-bearing nude mice to determine whether an antitumor effect could be achieved within the non-toxic range. In the first set of the experiments, tumor-bearing mice were treated with 0, 1, 5, 10, 25 mg/kg Triptonide by gavage with the regimen of one dosage every other day. […] Thus, the 25 mg/kg once every other day regimen was selected for the preclinical experiment. The volumes of individual tumors were assessed by bioluminescent imaging.
Thus, we first determined the lethal dose and the maximum tolerable dose (MTD) of Triptonide for mice based on a once every other day regimen. […] It is noted that once every other day might not be the optimal scheme. Nonetheless, we decided to begin with this scheme and the 25% value of the MTD, i.e. 25 mg/kg.

Compound `CC(C)[C@]12O[C@H]1[C@@H]1O[C@@]13[C@@]1(C)CCC4=C(COC4=O)[C@@H]1C[C@@H]1O[C@@]13C2=O` [Triptonide] has an MTD at 4 days of 100 to 200 mg/kg.
